Patent US20240360082A1, “SUBSTITUTED PYRIDONE COMPOUNDS USEFUL TO TREAT ORTH[…]” (priority 2021, published 2024)
Like-named read-outs stand apart in the source and are kept apart here.

System: influenza virus (multiple flu strains)
Assay: organism not typed
Settings: MDCK
[1] = read-out: NA Alaska H3N2 IC50, NA assay, Alaska H3N2 strain
[2] = read-out: NA CAL H1N1 IC50, NA assay, CAL H1N1 strain
[3] = read-out: NA Alaska H3N2, NA assay, Alaska H3N2 strain
[4] = read-out: NA CAL H1N1, NA assay, CAL H1N1 strain
[5] = read-out: NA—PR8 H1N1, NA assay, PR8 H1N1 strain

Row | SMILES | IC50 [1] | IC50 [2] | IC50 [3] | IC50 [4] | IC50 [5]
1 | C[C@@H]1COC[C@H](COc2ccc(-c3cc(C(N)=O)c(=O)[nH]c3C(F)(F)F)cc2)O1 [Example 328, 5-(4-(((2R,6R)-6-methyl-1,4-dioxan-2-yl)methoxy)phenyl)-2-oxo-6-(trifluoromethyl)-1,2-dihydropyridine-3-carboxamide] | 10 to 100 nM | 10 to 100 nM | – | – | –
2 | CC(Oc1ccc(-c2cc(C(N)=O)c(=O)[nH]c2C(F)(F)F)cc1)c1ccc2nonc2c1 (single isomer, unassigned) [Example 100, (R or S)-5-(4-(1-(benzo[c][1,2,5]oxadiazol-5-yl)ethoxy)phenyl)-2-oxo-6-(trifluoromethyl)-1,2-dihydropyridine-3-carboxamide] | – | – | 100 to 1000 nM | 100 to 1000 nM | –
3 | NC(=O)c1cc(-c2ccc(OCc3cc4c(cc3Cl)OCO4)cc2)c(C(F)(F)F)[nH]c1=O [Example 148, 5-(4-((6-chlorobenzo[d][1,3]dioxol-5-yl)methoxy)phenyl)-2-oxo-6-(trifluoromethyl)-1,2-dihydropyridine-3-carboxamide] | – | – | 1000 to 5000 nM | 5000 to 10000 nM | –
4 | NC(=O)c1cc(-c2cccc(CN3CCOCC3)c2)c(C(F)(F)F)[nH]c1=O [Example 23, 5-(3-(morpholinomethyl)phenyl)-2-oxo-6-(trifluoromethyl)-1,2-dihydropyridine-3-carboxamide] | – | – | – | – | 5000 to 10000 nM
5 | NC(=O)c1cc(-c2ccc(CN3CCOCC3c3cccnc3)cc2)c(C(F)(F)F)[nH]c1=O (centres unmarked) [Example 32, 2-oxo-5-(4-((3-(pyridin-3-yl)morpholino)methyl)phenyl)-6-(trifluoromethyl)-1,2-dihydropyridine-3-carboxamide] | – | – | 100 to 1000 nM | 100 to 1000 nM | –
6 | NC(=O)c1cc(-c2ccc(OCc3ccn4ccnc4c3)cc2)c(C(F)(F)F)[nH]c1=O [Example 91, 5-(4-(imidazo[1,2-a]pyridin-7-ylmethoxy)phenyl)-2-oxo-6-(trifluoromethyl)-1,2-dihydropyridine-3-carboxamide] | – | – | 1000 to 5000 nM | – | –
7 | NC(=O)c1cc(-c2ccc(OCc3cncc(C4(F)COC4)c3)cc2)c(C(F)(F)F)[nH]c1=O [Example 182, 5-(4-((5-(3-fluorooxetan-3-yl)pyridin-3-yl)methoxy)phenyl)-2-oxo-6-(trifluoromethyl)-1,2-dihydropyridine-3-carboxamide] | – | – | 100 to 1000 nM | 1000 to 5000 nM | –
8 | COC[C@]1(C)COC[C@@H](COc2ccc(-c3cc(C(N)=O)c(=O)[nH]c3C(F)(F)F)cc2)O1 [Example 406, 5-(4-(((2S,6R)-6-(methoxymethyl)-6-methyl-1,4-dioxan-2-yl)methoxy)phenyl)-2-oxo-6-(trifluoromethyl)-1,2-dihydropyridine-3-carboxamide] | < 10 nM | 10 to 100 nM | – | – | –
9 | CN(C)c1ncc(COc2ccc(-c3cc(C(N)=O)c(=O)[nH]c3C(F)(F)F)cc2)cn1 [Example 160, 5-(4-((2-(dimethylamino)pyrimidin-5-yl)methoxy)phenyl)-2-oxo-6-(trifluoromethyl)-1,2-dihydropyridine-3-carboxamide] | – | – | 100 to 1000 nM | 10000 to 25000 nM | –
10 | NC(=O)c1cc(-c2ccc(OC(CO)c3cnccn3)cc2)c(C(F)(F)F)[nH]c1=O (centres unmarked) [Example 187, 5-(4-(2-hydroxy-1-(pyrazin-2-yl)ethoxy)phenyl)-2-oxo-6-(trifluoromethyl)-1,2-dihydropyridine-3-carboxamide] | – | – | 100 to 1000 nM | 1000 to 5000 nM | –
11 | NC(=O)c1cc(-c2ccc(COc3cccnc3)cc2)c(C(F)(F)F)[nH]c1=O [Example 177, 2-oxo-5-(4-((pyridin-3-yloxy)methyl)phenyl)-6-(trifluoromethyl)-1,2-dihydropyridine-3-carboxamide] | – | – | 100 to 1000 nM | 1000 to 5000 nM | –
12 | NC(=O)c1cc(-c2ccc(OCC3COCC(CF)O3)cc2)c(C(F)(F)F)[nH]c1=O (single isomer, unassigned) [Example 351, 5-(4-((6-(fluoromethyl)-1,4-dioxan-2-yl)methoxy)phenyl)-2-oxo-6-(trifluoromethyl)-1,2-dihydropyridine-3-carboxamide] | 10 to 100 nM | 100 to 1000 nM | – | – | –
13 | NC(=O)c1cc(-c2ccc(OCc3cccnc3N3CCOCC3)cc2)c(C(F)(F)F)[nH]c1=O [Example 142, 5-(4-((2-morpholinopyridin-3-yl)methoxy)phenyl)-2-oxo-6-(trifluoromethyl)-1,2-dihydropyridine-3-carboxamide] | – | – | 1000 to 5000 nM | 10000 to 25000 nM | –
14 | NC(=O)c1cc(-c2ccc(OCC3CCOCC3)cc2)c(C(F)(F)F)[nH]c1=O [Example 56, 2-oxo-5-(4-((tetrahydro-2H-pyran-4-yl)methoxy)phenyl)-6-(trifluoromethyl)-1,2-dihydropyridine-3-carboxamide] | – | – | 100 to 1000 nM | 1000 to 5000 nM | –
15 | NC(=O)c1cc(-c2ccc(OCc3ncccc3F)cc2)c(C(F)(F)F)[nH]c1=O [Example 114, 5-(4-((3-fluoropyridin-2-yl)methoxy)phenyl)-2-oxo-6-(trifluoromethyl)-1,2-dihydropyridine-3-carboxamide] | – | – | 100 to 1000 nM | 1000 to 5000 nM | –
16 | NC(=O)c1cc(-c2ccc(OCc3ccncc3)cc2)c(C(F)(F)F)[nH]c1=O [Example 70, 2-oxo-5-(4-(pyridin-4-ylmethoxy)phenyl)-6-(trifluoromethyl)-1,2-dihydropyridine-3-carboxamide] | – | – | 100 to 1000 nM | 1000 to 5000 nM | –
17 | NC(=O)c1cc(-c2ccc(OCc3cccs3)cc2)c(C(F)(F)F)[nH]c1=O [Example 115, 2-oxo-5-(4-(thiophen-2-ylmethoxy)phenyl)-6-(trifluoromethyl)-1,2-dihydropyridine-3-carboxamide] | – | – | 100 to 1000 nM | 1000 to 5000 nM | –
18 | NC(=O)c1cc(-c2ccc(CO)cc2)c(C(F)(F)F)[nH]c1=O [Example 2, 5-(4-(hydroxymethyl)phenyl)-2-oxo-6-(trifluoromethyl)-1,2-dihydropyridine-3-carboxamide] | – | – | 100 to 1000 nM | 10000 to 25000 nM | 100 to 1000 nM
19 | NC(=O)c1cc(-c2ccc(CN3CCOCC3)c(F)c2)c(C(F)(F)F)[nH]c1=O [Example 36, 5-(3-fluoro-4-(morpholinomethyl)phenyl)-2-oxo-6-(trifluoromethyl)-1,2-dihydropyridine-3-carboxamide] | – | – | 1000 to 5000 nM | 5000 to 10000 nM | –
20 | NC(=O)c1cc(-c2ccc(OCc3ccc(N4CCOCC4)nc3)cc2)c(C(F)(F)F)[nH]c1=O [Example 128, 5-(4-((8-morpholinopyridin-3-yl)methoxy)phenyl)-2-oxo-6-(trifluoromethyl)-1,2-dihydropyridine-3-carboxamide] | – | – | 1000 to 5000 nM | 25000 to 50000 nM | –
21 | NC(=O)c1cc(-c2ccc(OCc3cccnc3)cc2)c(C(F)(F)F)[nH]c1=O [Example 72, 2-oxo-5-(4-(pyridin-3-ylmethoxy)phenyl)-6-(trifluoromethyl)-1,2-dihydropyridine-3-carboxamide] | – | – | 10 to 100 nM | 100 to 1000 nM | –
22 | CNC(=O)c1ccc(-c2cc(C(N)=O)c(=O)[nH]c2C(F)(F)F)cc1 [Example 19, 5-(4-(methylcarbamoyl)phenyl)-2-oxo-6-(trifluoromethyl)-1,2-dihydropyridine-3-carboxamide] | – | – | – | – | 1000 to 5000 nM
23 | Cc1nc(C)c(COc2ccc(-c3cc(C(N)=O)c(=O)[nH]c3C(F)(F)F)cc2)s1 [Example 118, 5-(4-((2,4-dimethylthiazol-5-yl)methoxy)phenyl)-2-oxo-6-(trifluoromethyl)-1,2-dihydropyridine-3-carboxamide] | – | – | 1000 to 5000 nM | 5000 to 10000 nM | –
